Laboratory results from US6482804B1, “Compositions and methods for delivery of genetic material” (Wyeth, priority 1997, dated 2002).

Assay type: physicochemical
Source text: A composition according to this invention must be soluble. The endpoint of concentrations of the components of the complex is generally precipitation. It is preferred that the charge ratio of the benzylammonium-containing surfactant and the polynucleic acid be less than 1, and that excess positive charge be avoided. The conditions of the solution, and the amounts of polynucleic acid sequence and surfactant can be manipulated to increase solubility and reduce the toxicity of the surfactant concentrations. Desirably, the pH of the admixture is between 6 and 8, and more preferably between 6.2 and 7.2. The desired isotonicity, hypotonicity (<0.9% w/v NaCl or equivalent) or hypertonicity (>0.9% w/v NaCl or equivalent), can be adjusted by tonicity adjusting agents [see, e.g., Remington's, cited above]. ii. Additional studies were performed by mixing DNA at 5 mg/ml in higher concentrations of benzalkonium chloride, up to 0.04% w/v, in 10 mM citrate or phosphate buffers, pH 6.7 (±0.5), and 50 mM NaCl, substantially as described above. […] At higher than ≧0.1% w/v, benzalkonium chloride alone is soluble and forms micelles. […] Benzalkonium chloride at concentrations higher than ≧0.04% w/v under these conditions, in the presence of DNA formed a fine precipitate that contained DNA (determined by agarose gel electrophoresis of the precipitate). […]

benzalkonium chloride
concentration at which benzalkonium chloride alone is soluble and forms micelles: ≥ 0.1 % w/v
